Laboratory results taken from patent US6177438A, “Morphinan derivatives and pharmaceutical use thereof” (priority 1993, dated 2001).

Protein sequences, listed by entry. Tags and fused reporters are not part of them. Lines headed by an entry give the natural chain unless they say otherwise; changes in a name come on top.
UniProt P32300, whole entry, looked up: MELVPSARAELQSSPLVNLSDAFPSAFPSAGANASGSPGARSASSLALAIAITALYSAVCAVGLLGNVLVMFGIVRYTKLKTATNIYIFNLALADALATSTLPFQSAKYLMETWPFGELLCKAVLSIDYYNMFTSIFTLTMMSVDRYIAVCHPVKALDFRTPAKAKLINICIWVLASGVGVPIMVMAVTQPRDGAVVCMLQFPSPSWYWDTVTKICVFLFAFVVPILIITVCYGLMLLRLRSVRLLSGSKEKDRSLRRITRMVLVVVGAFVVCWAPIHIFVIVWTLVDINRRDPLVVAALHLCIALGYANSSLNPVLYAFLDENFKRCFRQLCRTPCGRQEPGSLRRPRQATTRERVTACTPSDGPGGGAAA

What was measured:
δ receptor = δ receptor (Mus musculus, UniProt P32300); conditions: mouse vas deferens, in words
[1] = test system: cultured nerve cells (cerebral cortex); conditions: 10 mM glutamic acid, 24 hours

CC(=O)N(C)[C@H]1CC[C@@]2(O)[C@H]3Cc4ccc(O)c5c4[C@@]2(CCN3CC2CC2)[C@H]1O5
receptor selectivity of agonist (δ) (δ receptor): selective agonists for δ receptors | Protective action against cytotoxicity caused by glutamic acid (in words) [1]: clearly demonstrated action that protects nerve cells from cytotoxicity caused by glutamic acid | EC50 ([1]; read-out: ED50 (protection against glutamic acid toxicity), 37° C., LDH leakage): 7.6 µM
